Measurements: patent US20240246911A1, “NOVEL T[…] METHODS OF TREATING MOOD DISORDERS” (GILGAMESH PHARMACEUTICALS INC., priority 2021, published 2024)

Molecular target: 5-HT1A receptor (Homo sapiens (Human), UniProt P08908)
Assay: FLIPR Ca2+ flux functional assay, agonist activity at 5-HT1A
Type: cell-based
Settings: CHO stably transfected cells
Protocol: Functional Assays at 5-HT2A, 5-HT2B, and 5-HT1A Receptors. Agonist activity at 5-HT2A, 5-HT2B, and 5-HTIA receptors was determined using a FLIPR Ca^2− flux assay at WuXi AppTec (Hong Kong) Limited according to their standard protocols. Briefly, stably transfected cells expressing the receptor of interest (HEK293 for 5-HT2A and 5-HT2B; CHO cells for 5-HT1A) were grown and plated in a 384-well plate and incubated at 37° C. and 5% CO2 overnight. A solution of 250 mM probenecid in 1 mL FLIPR assay buffer was prepared fresh. This was combined with a fluorescent dye (Fluo-4 Direct™) to make a final assay concentration of 2.5 mM. Compounds were diluted 1:3.16 for 10 points and 750 nL was added to a 384-well compound plate using ECHO along with 30 μL of assay buffer. The fluorescent dye was then added to the assay plate along with assay buffer to a final volume of 40 μL. The cell plate was incubated for 50 min at 37° C.and 5% CO2 and placed into the FLIPR Tetra along with the compound plate. 10 μL of references and compounds were then transferred from the compound plate into the cell plate and the fluorescent signal was read.

COc1ccc2[nH]cc(CCN(C)C)c2c1 [Compound 5-MeO-DMT, 5-methoxy-N,N-dimethyltryptamine]
EC50: 279 nM
